The values below are quoted from earlier work in patent US20260169011A1, “METHODS AND COMPOSITIONS FOR PROVIDING CUSTOMIZED NUTRITIONAL SUPPLEMENTS” (Vibrant Holdings LLC, priority 2023, published 2026).

The conditions of the series: upper tolerable limit; cited from earlier work.

On to Folate (L-5-methyltetrahydrofolate), for which the UTL is recorded as 1,000 mcg/day.
